Columns and labels:
[1] = Stability of solid form under accelerated and stress conditions; details: for stability of the crystalline form under accelerated condition (in words): 40 °C and relative humidity of 75%; for stability of the crystalline form under stress condition (in words): 60 °C
Protocol: High-performance liquid chromatography (HPLC) analysis was performed by using an Agilent 1100/1200 Series HPLC Systems (Agilent, USA) analyzer to analyze purity and contents such as a stability test, and analysis conditions were as follows. • Purity and content analysis conditions: Furopyrimidine compound of Formula 1 • Column: Hydrosphere C18 (YMC), 5 μm (150 mm×4.6 mm) • Column temperature: 30 °C. • Detector: ultraviolet absorption photometer • Detection wavelength: 254 nm • Flow velocity: 1.0 mL/min • Analysis time: 35 minutes • Eluent: NaClO4—NaH2PO4-phosphoric acid buffer solution (pH 2.5±0.1)/CH3CN=65/35 (v/v %)

[2] = Dynamic vapor sorption (DVS) hygroscopicity; details: for hygroscopicity in DVS: relative humidity 0% to 90%, 25 °C
Protocol: DVS analysis was performed by using a DVS Advantage (Surface Measurement System, United Kingdom) analyzer at 25 °C and a relative humidity of 0% to 90%, 10 mg of samples were placed in a wire mesh vapor sorption balance pan and mounted on a DVS Advantage Dynamic Vapor Sorption balance (Surface Measurement Systems, Ltd). The samples were applied to a ramping profile with relative humidity (RH) of 10% to 90% with a 10% increase of the sample while maintaining the sample in each step, until a stable weight is achieved (99.5% of weight change is completed in a step). After completion of a sorption cycle, the samples were dried in the same manner, always applying a 0% lower relative humidity after each step. Weight changes during sorption/desorption cycles (repeated 3 times) were recorded to measure hygroscopicity of the sample.

Row | stability of the crystalline form under accelerated condition (in words) [1] | stability of the crystalline form under stress condition (in words) [1] | moisture absorption in DVS (in words) ([2]; relative humidity 0% to 20%) | level of moisture absorption in DVS (in words) ([2]; relative humidity 30% or more) | non-hygroscopicity (in words) ([2]; summary statement) | hygroscopicity in DVS [2] | Compound
1 | sufficiently stable | sufficiently stable | occurrence of moisture absorption | very low | particularly excellent |  | Cc1ccc2c(-c3nc(Nc4cc(CN5C[C@@H](C)N[C@@H](C)C5)cc(C5CC5)c4)ncc3Cl)c[nH]c2c1
2 | sufficiently stable | sufficiently stable |  |  |  | about 12% | Cc1ccc2c(-c3nc(Nc4cc(CN5C[C@@H](C)N[C@@H](C)C5)cc(C5CC5)c4)ncc3Cl)c[nH]c2c1 [Example 3]
3 |  |  |  |  |  | about 5% | Cc1ccc2c(-c3nc(Nc4cc(CN5C[C@@H](C)N[C@@H](C)C5)cc(C5CC5)c4)ncc3Cl)c[nH]c2c1 [Example 1]
4 | sufficiently stable | sufficiently stable |  |  |  | about 0.5% | Cc1ccc2c(-c3nc(Nc4cc(CN5C[C@@H](C)N[C@@H](C)C5)cc(C5CC5)c4)ncc3Cl)c[nH]c2c1 [Example 6]
5 | sufficiently stable | sufficiently stable |  |  |  | about 0.3% | Cc1ccc2c(-c3nc(Nc4cc(CN5C[C@@H](C)N[C@@H](C)C5)cc(C5CC5)c4)ncc3Cl)c[nH]c2c1 [Example 4]
6 | sufficiently stable | sufficiently stable |  |  |  | about 3.5% | Cc1ccc2c(-c3nc(Nc4cc(CN5C[C@@H](C)N[C@@H](C)C5)cc(C5CC5)c4)ncc3Cl)c[nH]c2c1 [Example 5]

— patent publication US20260384419A1, “NOVEL CRYSTALLINE FORM OF A PYRIMIDINE COMPOUND AND PHARMACEUTICAL COMPOSITIONS COMPRISING THE SAME AND METHODS OF USE THEREOF” (published 2026)
